From article PMC12113668, “Discovery of Potential Scaffolds for Methionine Adenosyltransferase 2A (MAT2A) Inhibitors: Virtual Screening, Synthesis, and Biological Evaluation” (Molecules, 2025)

Amino acid sequences for entries named in this document (tags omitted).
UniProt P31153, whole entry: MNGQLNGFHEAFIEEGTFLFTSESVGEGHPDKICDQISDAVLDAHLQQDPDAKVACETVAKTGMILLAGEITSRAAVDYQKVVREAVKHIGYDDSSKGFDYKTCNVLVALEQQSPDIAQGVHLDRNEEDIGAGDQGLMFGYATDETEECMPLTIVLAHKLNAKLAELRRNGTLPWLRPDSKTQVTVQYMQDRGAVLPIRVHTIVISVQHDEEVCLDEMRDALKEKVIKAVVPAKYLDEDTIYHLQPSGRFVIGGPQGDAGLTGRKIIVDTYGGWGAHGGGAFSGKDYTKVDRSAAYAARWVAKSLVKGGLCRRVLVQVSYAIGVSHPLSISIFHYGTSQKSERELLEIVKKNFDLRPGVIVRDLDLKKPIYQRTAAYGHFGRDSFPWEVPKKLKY

Target: MAT2A (Homo sapiens, UniProt P31153)
Assay: MAT2A enzymatic assay (colorimetric Phosphate Assay Kit-PiColorLock)
Type: biochemical
Method: The inhibition of MAT2A by each compound was determined using the colorimetric Phosphate Assay Kit-PiColorLock (#ab270004) as described previously. […] Assay measurements were performed in 1X buffer containing 50 mM Tris, 50 mM KCl, 10 mM MgCl2, and 0.05% Brij-35 (pH 8.0) in a final assay volume of 5 μL. A total of 2.5 μL of MAT2A protein with a final concentration of 20 μg/mL was added to each well of a 384 well assay plate containing 100 nL of each concentration of test compound dissolved in DMSO and incubated for 30 min at room temperature. ATP (100 μM final concentration) and L-Met (100 μM final concentration) were subsequently added and incubated for 30 min at room temperature. Then 20 μL of the phosphate assay kit substrate was added to each well, incubated at room temperature for 30 min, and then the absorbance was measured at 620 nm on a plate reader.

SMILES: CN(C)c1nc(=O)n(-c2ccccc2)c2cc(Cl)ccc12 [6 (AZ-28), AZ-28, reference compound]
- Maximum Inhibition (%): 96%
